# Data from PubChem BioAssay AID1863 (Southern Research Specialized Biocontainment Screening …, 2009).
# The entries are a selection whose mix differs from that of the whole data set. Entries with a potency or affinity are not part of this list. Activity calls are given as the source filed them.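 How the source made its calls: active means inhibition over 29.93%, a cutoff 3 SD above the screen mean, later confirmed by dose response; inconclusive means inhibition over 29.93% but no dose response follow-up; inactive means inhibition at most 29.93% or unconfirmed.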
# Experiment: inhibitors of PhoP regulon expression, primary screen, Salmonella Typhimurium, GFP reporter (AID 1863);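 further: 0% = low Mg2+ inducing control and 100% = high Mg2+ repressing control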
# Details: S. Typhimurium PhoP-regulated promoter GFP reporter, 4 h; at 50 µM; active compounds read high
row,SMILES,inhibition
1,CP(=O)(Nc1ccccc1Br)Oc1ccccc1 (stereo not drawn),inactive: 8.5%
2,COc1ccccc1OP(C)(=O)Nc1ccccc1 (stereo not drawn),inactive: 1.18%
3,CP(=S)(Nn1cnnc1)Oc1ccccc1 (stereo not drawn),inactive: 2.5%
4,CP(=O)(Nc1ccccn1)Oc1ccc(Cl)cc1 (stereo not drawn),inactive: 3.46%
5,CCOC(=O)c1ccc(NP(C)(=O)Oc2ccc(OC)cc2)cc1 (stereo not drawn),inactive: -9.71%
6,CCOP(C)(=S)SCC(=O)NC(C)C(=O)O (stereo not drawn),inactive: -3.04%
7,CP(=O)(NC(=O)Nc1ccccc1)Oc1ccccc1 (stereo not drawn),inactive: -4.57%
8,CCc1ccc(OP(C)(=O)N2CCN(c3ccc([N+](=O)[O-])cc3)CC2)cc1 (stereo not drawn),inactive: 1.41%
9,Cc1cc(C)cc(OP(C)(=O)Nc2ccc(SC(F)(F)F)cc2)c1 (stereo not drawn),inactive: 12.3%
10,Cc1cccc(C)c1OP(C)(=O)Nc1ccc(SC(F)(F)F)cc1 (stereo not drawn),inactive: -7.64%
11,CP(=O)(Nc1ccc(SC(F)(F)F)cc1)Oc1ccc(Cl)cc1 (stereo not drawn),inactive: -5.54%
12,CP(=O)(Oc1ccccc1)OC(c1ccccc1)C(F)(F)F (stereo not drawn),inactive: 5.96%
13,CCN(CC)CCCOC(=O)C(O)(c1ccccc1)c1ccccc1,inactive: -3.99%
14,Cc1cc(C)cc(OP(C)(N)=O)c1 (stereo not drawn),inactive: 5.45%
15,COc1ccccc1OP(C)(=O)Nc1cc(Cl)ccc1C (stereo not drawn),inactive: 4.3%
16,COc1ccc(OP(C)(=O)Nc2cccc(F)c2)cc1 (stereo not drawn),inactive: -2.16%
17,COc1ccccc1OP(C)(=O)Nc1ccc(C)cc1 (stereo not drawn),inactive: 5.21%
18,Cc1ccc(NP(C)(=O)Oc2ccccc2)c(C)c1 (stereo not drawn),inactive: 8.83%
19,CCOC(=O)c1ccc(NP(C)(=O)Oc2ccccc2)cc1 (stereo not drawn),inactive: -4.48%
20,O=[N+]([O-])c1ccc2c(c1)C=Nc1ccccc1O2,inactive: 3.26%
21,CC(C)(C)c1ccc(OP(C)(=O)Nc2ccc(SC(F)(F)F)cc2)cc1 (stereo not drawn),inactive: 0.09%
22,Cc1cccc(C)c1OP(C)(N)=O (stereo not drawn),inactive: 1.31%

row,SMILES,inhibition
1,O=[N+]([O-])c1cc([N+](=O)[O-])c(Nc2cccnc2)c([N+](=O)[O-])c1,inactive: 0.42%
2,CC1=NCCc2c1[nH]c1ccccc21.O=[N+]([O-])c1cc([N+](=O)[O-])c(O)c([N+](=O)[O-])c1,inactive: 35%
3,O=C(O)c1cccc(Nc2c([N+](=O)[O-])cc([N+](=O)[O-])cc2[N+](=O)[O-])c1,inactive: -7.06%
4,Cc1ccc(C)c(NP(C)(=O)Oc2ccccc2)c1 (stereo not drawn),inactive: 3.33%
5,Cc1cc(C)cc(OP(C)(=O)Nc2ccccn2)c1 (stereo not drawn),inactive: 7.72%
6,CP(=O)(Nc1cccc(Br)c1)Oc1ccccc1 (stereo not drawn),inactive: 1.93%
7,CCOC(=O)c1ccc(NP(C)(=O)Oc2cc(C)cc(C)c2)cc1 (stereo not drawn),inactive: -21.6%
8,Cc1cc(C)cc(OP(C)(=O)Nc2ccc(C)cc2C)c1 (stereo not drawn),inactive: 12.7%
9,COc1ccccc1OP(C)(=O)Nc1cccc(Br)c1 (stereo not drawn),inactive: 2%
10,Cc1nc2ccc3ccccc3c2s1.O=[N+]([O-])c1cc([N+](=O)[O-])c(O)c([N+](=O)[O-])c1,inactive: -2.86%
11,O=[N+]([O-])c1cc([N+](=O)[O-])c(-n2nnc3ccccc32)c([N+](=O)[O-])c1,inactive: 8.35%
12,CCCOc1ccc(NP(C)(=O)Oc2ccc(Cl)cc2)cc1 (stereo not drawn),inactive: -5.57%
13,CP(=O)(Nc1ccc(SC(F)(F)F)cc1)Oc1ccccc1 (stereo not drawn),inactive: 3.31%
14,COc1ccccc1OP(C)(=O)Nc1c(C)cccc1C (stereo not drawn),inactive: -0.94%
15,CN1CCCCC1COC(=O)C1(O)c2ccccc2CCc2ccccc21 (stereo not drawn),inactive: -4.98%
16,CC1=C2N=C(C=C3N=C(C(C)=C4[N-][C@@](C)([C@@H]5N=C1[C@](C)(CCC(=O)NC[C@@H](C)OP(=O)([O-])O[C@H]1[C@@H](O)[C@@H](n6cnc7cc(C)c(C)cc76)O[C@@H]1CO)[C@H]5CC(N)=O)[C@@](C)(CC(N)=O)[C@@H]4CCC(N)=O)[C@@](C)(CC(N)=O)[C@@H]3CCC(N)=O)C(C)(C)[C@@H]2CCC(N)=O.[C-]#N.[Co+3],inactive: 9.73%
17,O=[N+]([O-])c1cc([N+](=O)[O-])c(Nc2nnnn2CCO)c([N+](=O)[O-])c1,inactive: -0.095%
18,CCOC(=O)C(CC)C1=NC(C)(C)Cc2ccccc21.O=[N+]([O-])c1cc([N+](=O)[O-])c(O)c([N+](=O)[O-])c1 (stereo not drawn),inactive: -1.21%
19,O=[N+]([O-])c1ccc(OP2(=O)COCCO2)cc1 (stereo not drawn),inactive: 2.25%
20,O=[N+]([O-])c1cc([N+](=O)[O-])c(NCC2CCS(=O)(=O)C2)c([N+](=O)[O-])c1 (stereo not drawn),inactive: 6.14%
21,Cc1cc(-c2cccc3ccccc23)c(C)cn1.O=[N+]([O-])c1cc([N+](=O)[O-])c(O)c([N+](=O)[O-])c1,inactive: -0.69%
